We go through 41 compounds from PubChem BioAssay AID1532 (PCMD, 2009).

The entries are a selection whose mix differs from that of the whole data set. Calls of active or inactive are those of the source. Rule as the data show it: active = inhibition above about 30% (passing the limit was not always enough); inconclusive = no clear call, values can overlap the other calls.

This assay relates to RmlC (dTDP-4-dehydrorhamnose 3,5-epimerase) and RmlD (dTDP-4-dehydrorhamnose reductase), coupled enzyme assay. Kind of assay: RmlC and RmlD coupled enzyme inhibitors, primary screen, biochemical, 384-well, compound mixtures, retest (AID 1532). To be noted: 384-well mixture HTS, at 5.5 µM, hits give high values.
`Cc1ccc(OCC(=O)OC2CN3CCC2CC3)cc1` (stereo unspecified): the inhibition is inactive: -8.03%. The figure for `O=P1(Nc2ccc(Br)cn2)COc2ccccc2OC1` is inactive: -10.5%. The figure for `O=P1(Nc2ncccn2)COc2ccccc2OC1` is inactive: -16.8%; for `Cc1nn(-c2ccccc2)c2c1P(=O)(N1CCOCC1)N(C)C(c1ccccc1)=N2` (stereo unspecified) it is inactive: -11.1%; for `CN(C(=O)Cc1ccc(Cl)c(Cl)c1)[C@@H]1CCCC[C@H]1N1CCCC1` it is inactive: -19.3%. The figure for `CC1(CBr)Cn2c(nc3ccccc3c2=O)S1` (stereo unspecified) is inactive: -12%; for `Clc1n[nH]nc1-c1nn[nH][15n]1` it is inactive: 2.54%; for `O=P1(Nc2ccccn2)COc2ccccc2OC1` it is inactive: -12.3%. Regarding `CN(CCCl)Cc1cc(Cl)c(NC2=NCCN2)c(Cl)c1`, the inhibition was inactive: 5.41%. The figure for `Cc1cccc(OCC(=O)OC2CN3CCC2CC3)c1` (stereo unspecified) is inactive: 2.55%; for `CN(C(=O)Cc1ccccc1)[C@@H]1CC[C@]2(CCCO2)C[C@H]1N1CCCC1` it is inactive: 4.12%. The figure for `CCOP1(=S)c2c(C)nn(CCC#N)c2N=C(c2ccc(F)cc2)N1C` (stereo unspecified) is inactive: -13.9%.

For the compound `O=[N+]([O-])c1ccc2c(c1)nnn2O`, the inhibition is inactive: -10.4%.

`CN(C(=O)Cc1ccc(Cl)c(Cl)c1)[C@H]1CC[C@@]2(CCCO2)C[C@@H]1N1CCCC1`: the inhibition was inactive: 6.31%. For `NC(=O)Nc1ccc([As](=O)(O)O)cc1`, the inhibition is inactive: 8.6%. Consider `CCOP1(=S)c2c(C)nn(CCC#N)c2N=C(c2ccccc2F)N1C` (stereo unspecified), for which the inhibition is inactive: -15.3%.

On to `O=P(Nc1nccs1)(c1ccccc1)c1nc2ccccc2s1` (stereo unspecified), for which the inhibition was active: 35.6%. The figure for `CCN(CC)C(=S)SC(NC=O)C(Cl)(Cl)Cl` (stereo unspecified) is inactive: 3.14%. `ClCCSc1nnc(-c2cccnc2)o1`: the inhibition was inactive: 2.18%. On to `O=C(OC1CN2CCC1CC2)C12CC3CC(CC(C3)C1)C2` (stereo unspecified), for which the inhibition was inactive: -5.67%.

On to `CCC(C)N(CC(C)C)C(=S)SC(NC(C)=O)C(Cl)(Cl)Cl` (stereo unspecified), for which the inhibition was inactive: -2.3%. The result for `COP1(=S)c2c(C)nn(CCC#N)c2N=C(c2ccc(F)cc2)N1C` (stereo unspecified) reads inactive: -7.81%; that for `CC1CCN(C(=O)Oc2c(Cl)cc(Cl)c3cccnc23)CC1`, inactive: 9.62%; that for `CCc1nc2c(n1)c1c(non1O)c1c2no[n+]1[O-]`, inactive: -0.33%. The figure for `CC(=O)N1C2C3N(C(C)=O)C1C1N(C(C)=O)C(C(N1C(C)=O)N3C(C)=O)N2C(C)=O` is inactive: 5.33%; for `O=[N+]([O-])c1cccc2n[nH]nc12` it is inactive: -9.86%. The result for `Cc1c2non([O-])c-2c(C)[n+](=O)[n+]1[O-]` reads inactive: 2.35%. As for `CC(C)CC(=O)NC(Sc1ccc(Cl)cc1)C(Cl)(Cl)Cl` (stereo unspecified), the inhibition was inactive: 12.8%. Turning to `CN1CCCC(OC(=O)C(c2ccccc2)c2ccccc2)C1` (stereo unspecified), the inhibition is inactive: -10.8%. The figure for `CCOP(=O)(Nc1ccccc1)OCC` is inactive: 15.6%; for `CN(C(=O)Cc1ccc(Cl)c(Cl)c1)[C@H]1CCCC[C@@H]1N1CCCC1` it is inactive: 4.45%. Consider `CCC(=O)N1C2C3N(C(=O)CC)C1C1N(C(=O)CC)C(C(N1C(=O)CC)N3C(=O)CC)N2C(=O)CC`, for which the inhibition is inactive: 3.62%. The result for `COC(=O)c1cc2c(s1)N=C(c1ccccc1)N(C)P2(=O)N1CCOCC1` (stereo unspecified) reads inactive: 1.65%; that for `CCOC(=O)NC(Sc1ccccc1)C(Cl)(Cl)Cl` (stereo unspecified), inactive: -15.9%. For `C[C@H]1OP(=O)(Oc2ccccc2)C[C@@H]2O[C@@H]21` (stereo partly specified), the inhibition is inactive: 17.4%. The figure for `C[C@@H]1C=CCP(=O)(Oc2ccccc2)O1` (stereo partly specified) is inactive: 4.14%; for `O=P1(Nc2nc3ccc(Cl)cc3s2)COc2ccccc2O1` (stereo unspecified) it is inactive: 8.91%; for `c1nnnn1CCn1cnnn1` it is inactive: -12%.

Consider `O=P(Nc1nccs1)(c1ccccc1)c1ccccc1`, for which the inhibition is inactive: 22.5%. The figure for `O=C(OC1CN2CCC1CC2)c1cccc(Cl)c1` (stereo unspecified) is inactive: 3.81%. For `C[C@H]1OP(=O)(Oc2ccccc2)[C@H](O)[C@H](O)[C@H]1N=[N+]=[N-]` (stereo partly specified), the inhibition was inactive: 19.7%.
